Test results reported in patent US20110237670A1, “IMPROVEMENT OF NORMAL COGNITIVE FUNCTION” (priority 2008, published 2011).

Assays:
Male NMRI mice = test: novel object recognition test (learning and memory formation); type: in vivo; conditions: 1000 mg/kg intraperitoneally, 90 min delay, p<0.05, FIG. 3A
Experimental: Male NMRI mice (Charles River, Germany, 25-35 g) were used in examples 1, 2 and 3. The animals were housed nine per cage in a colony room under constant temperature (20±1° C.) and humidity (50±5%). Animals were allowed to acclimatize for at least one week prior to behavioral testing. The daylight cycle was maintained artificially (lights on from 0600 to 1800 hours) and behavioral experiments were conducted during the light phase. The Ethics Committee for Animal Experiments, Goteborg, Sweden, approved all experimental procedures used in the present study.
There are several learning and memory tasks that are appropriate for study in rodents. One widely used is the novel object recognition test. The test involves exposing the rodent to two identical objects for a brief period of time (the introductory session). […] Furthermore, very similar aspects of memory formation (involving encoding, con solidation and retrieval of information) can be assessed in human using the Brief Visual Memory Task-Revised (BVMT-R). […]
The object exploration time was manually scored from the videotapes. […]
Data are expressed as means and standard errors of the mean (S.E.M.). […]
A discrimination index was calculated for each animal: Tn/(Tf+Tn)*100 […]

humans = conditions: 6 g daily; cited from earlier work

## NCCCC[C@H](N)C(=O)O [L-lysine]
Male NMRI mice
  discrimination index during the recognition session versus saline: significantly more time exploring the novel object
humans
  safety of long-term addition to the daily diet: regarded to be safe
